Earlier results in patent US20160311911A1, “METHODS FOR TREATING ALLERGIC AIRWAY INFLAMMATION” (priority 2015, published 2016).

Sequences of proteins named here, by UniProt entry; tags and fusion partners are left off.
UniProt P25025, whole entry: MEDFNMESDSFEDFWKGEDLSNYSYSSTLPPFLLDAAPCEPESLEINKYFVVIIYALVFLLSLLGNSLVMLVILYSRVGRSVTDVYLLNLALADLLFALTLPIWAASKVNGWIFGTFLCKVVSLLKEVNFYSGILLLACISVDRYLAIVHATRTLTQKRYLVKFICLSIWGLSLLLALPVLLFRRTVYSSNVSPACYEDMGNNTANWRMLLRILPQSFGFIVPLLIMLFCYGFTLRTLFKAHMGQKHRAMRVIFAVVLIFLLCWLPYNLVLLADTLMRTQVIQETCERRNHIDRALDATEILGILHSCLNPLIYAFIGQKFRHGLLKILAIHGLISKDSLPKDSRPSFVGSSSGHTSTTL

Target: CXCR2 (Homo sapiens, UniProt P25025)
Conditions: human subjects with severe asthma; reference 48; cited from earlier work

For `CC[C@@H](Nc1c(Nc2cccc(C(=O)N(C)C)c2O)c(=O)c1=O)c1ccc(C)o1` [SCH 527123], the asthma exacerbations is given as “reduced”.
